# Experimental data taken from paper PMC4800182 (Frontiers in Microbiology, 2016).
# Amino acid sequences for entries named in this document (tags omitted). Residues count along the entry.
# UniProt P62575, 54-1035: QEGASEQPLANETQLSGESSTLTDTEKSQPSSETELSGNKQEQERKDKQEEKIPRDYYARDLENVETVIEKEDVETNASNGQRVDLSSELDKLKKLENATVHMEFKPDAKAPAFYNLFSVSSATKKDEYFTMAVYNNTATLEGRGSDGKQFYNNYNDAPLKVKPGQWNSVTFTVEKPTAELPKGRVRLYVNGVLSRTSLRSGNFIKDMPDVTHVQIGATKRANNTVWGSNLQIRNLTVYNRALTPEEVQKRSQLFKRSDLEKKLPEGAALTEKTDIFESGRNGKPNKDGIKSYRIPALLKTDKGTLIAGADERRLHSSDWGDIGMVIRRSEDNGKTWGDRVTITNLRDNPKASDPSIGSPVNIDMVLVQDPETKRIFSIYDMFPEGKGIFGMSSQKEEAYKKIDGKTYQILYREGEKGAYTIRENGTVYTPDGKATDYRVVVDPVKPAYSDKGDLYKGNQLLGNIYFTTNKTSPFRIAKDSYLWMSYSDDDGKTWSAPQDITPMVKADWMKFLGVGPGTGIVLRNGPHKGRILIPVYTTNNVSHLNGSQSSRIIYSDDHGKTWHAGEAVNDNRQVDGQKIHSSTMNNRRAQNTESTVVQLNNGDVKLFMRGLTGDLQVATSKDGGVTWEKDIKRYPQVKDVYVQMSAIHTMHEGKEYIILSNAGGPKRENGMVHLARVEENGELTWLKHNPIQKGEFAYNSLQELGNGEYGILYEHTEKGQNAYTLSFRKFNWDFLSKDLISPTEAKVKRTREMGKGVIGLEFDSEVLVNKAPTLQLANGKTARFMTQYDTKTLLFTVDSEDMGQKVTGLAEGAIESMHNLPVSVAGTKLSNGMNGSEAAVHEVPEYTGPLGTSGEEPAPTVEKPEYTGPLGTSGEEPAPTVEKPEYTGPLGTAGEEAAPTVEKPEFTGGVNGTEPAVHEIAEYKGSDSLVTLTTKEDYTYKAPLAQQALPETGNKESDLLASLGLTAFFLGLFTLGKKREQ
# Molecular target: T1, rNanA (Streptococcus pneumoniae, UniProt P62575)
# T1 construct: made in house; host or cells: E. coli
# Test: FL assay (MUNANA), inhibition of rNanA
# Type: biochemical, Streptococcus pneumoniae DSM20566
# Details: rNanA diluted 1:10,000; pH 6.5; MUNANA substrate; read-out: Inhibitory Concentration of NAIs against rNanA, FL assay
# Protocol: Activity of 10-fold dilutions (1:1,000 to 1:100,000) of rNanA and rNanB was determined with a fluorescence-based NA assay (FL assay) using the substrate 2-(4-methylumbelliferyl)-α-D-N-acetylneuraminic acid sodium salt hydrate (MUNANA, Sigma–Aldrich GmbH) as published ([Richter et al., 2015]). The activity of rNanB was additionally tested at pH 5. Relative FL units (RFU) were read using the microplate reader FLUOstar Omega (BMG Labtech GmbH, Ortenberg, Germany) and converted to 4-MU concentration (Sigma–Aldrich GmbH) according to the 4-MU standard curve (Supplementary Figure 1). Velocity (μM/min) and Km value (μM) for rNanA and rNanB were determined using eight MUNANA concentrations (3.13 to 400 μM) at pH 6.5. After 5 min the reaction was stopped, RFU were measured and converted to 4-MU concentrations according to the 4-MU standard curve. The Enzyme Kinetics Module of SigmaPlot 12.0 (Systat Software, San Jose, CA, USA) was applied to fit the data to the Michaelis–Menten equation using non-linear regression.
# The NAI susceptibility of rNanA and rNanB was evaluated with FL assay (rNanA and rNanB diluted 1:10,000 in FL buffer; pH 6.5) and HA assay as published recently ([Richter et al., 2015]) with slight modification of the HA assay. […]
smiles,measurement,value
"CC(=O)N[C@H]1[C@H]([C@H](O)[C@H](O)CO)OC(C(=O)O)=C[C@@H]1O [DANA, N-acetyl-2,3-dehydro-2-deoxyneuraminic acid]",IC50,17.7 ± 2 µM
